Read-outs that look alike come from different tables or passages of the source.
Columns and labels:
A2780 ovarian cells [1] = test: A2780 ovarian cell proliferation assay in lipid reduced medium, with palmitate (MTT); details: 25 μM palmitate, 96 h incubation, "~" = standard error of pIC50 larger than 0.5
A2780 ovarian cells [2] = test: A2780 ovarian cell proliferation assay in lipid reduced medium, without palmitate (MTT); details: 96 h incubation, "~" = standard error of pIC50 larger than 0.5
[3] = target: hFASN enzyme (full length) (Homo sapiens, UniProt P49327); test: Fatty Acid Synthase (FASN) inhibition scintillation proximity assay; type: biochemical; details: for Human FASN % inhibition @ 10 μM: 10 μM test compound
[4] = test system: PC-3M-Luc-C6 prostate cells; test: In vitro PC-3M-Luc-C6 prostate cell proliferation assay in lipid reduced medium; type: cell-based; details: 96 h incubation, ATP-glow luminescence, mean where tested more than once, ~ = standard error of pIC50 larger than 0.5
[5] = test system: LNCaP-Vancouver prostate cells; test: In vitro LNCaP Vancouver prostate cell proliferation assay in lipid reduced medium; type: cell-based; details: mean where tested more than once, ~ = standard error of pIC50 larger than 0.5
[6] = target: Fatty Acid Synthase Keto-reductase Domain (FASN KR) (Homo sapiens, UniProt P49327); test: Fatty Acid Synthase keto-reductase domain (FASN KR) inhibition, NADPH oxidation at 340 nm; details: absorbance at 340 nm, ethyl acetoacetate substrate

Chains of the proteins cited; added tags and fusions are not shown.
UniProt P49327, whole entry: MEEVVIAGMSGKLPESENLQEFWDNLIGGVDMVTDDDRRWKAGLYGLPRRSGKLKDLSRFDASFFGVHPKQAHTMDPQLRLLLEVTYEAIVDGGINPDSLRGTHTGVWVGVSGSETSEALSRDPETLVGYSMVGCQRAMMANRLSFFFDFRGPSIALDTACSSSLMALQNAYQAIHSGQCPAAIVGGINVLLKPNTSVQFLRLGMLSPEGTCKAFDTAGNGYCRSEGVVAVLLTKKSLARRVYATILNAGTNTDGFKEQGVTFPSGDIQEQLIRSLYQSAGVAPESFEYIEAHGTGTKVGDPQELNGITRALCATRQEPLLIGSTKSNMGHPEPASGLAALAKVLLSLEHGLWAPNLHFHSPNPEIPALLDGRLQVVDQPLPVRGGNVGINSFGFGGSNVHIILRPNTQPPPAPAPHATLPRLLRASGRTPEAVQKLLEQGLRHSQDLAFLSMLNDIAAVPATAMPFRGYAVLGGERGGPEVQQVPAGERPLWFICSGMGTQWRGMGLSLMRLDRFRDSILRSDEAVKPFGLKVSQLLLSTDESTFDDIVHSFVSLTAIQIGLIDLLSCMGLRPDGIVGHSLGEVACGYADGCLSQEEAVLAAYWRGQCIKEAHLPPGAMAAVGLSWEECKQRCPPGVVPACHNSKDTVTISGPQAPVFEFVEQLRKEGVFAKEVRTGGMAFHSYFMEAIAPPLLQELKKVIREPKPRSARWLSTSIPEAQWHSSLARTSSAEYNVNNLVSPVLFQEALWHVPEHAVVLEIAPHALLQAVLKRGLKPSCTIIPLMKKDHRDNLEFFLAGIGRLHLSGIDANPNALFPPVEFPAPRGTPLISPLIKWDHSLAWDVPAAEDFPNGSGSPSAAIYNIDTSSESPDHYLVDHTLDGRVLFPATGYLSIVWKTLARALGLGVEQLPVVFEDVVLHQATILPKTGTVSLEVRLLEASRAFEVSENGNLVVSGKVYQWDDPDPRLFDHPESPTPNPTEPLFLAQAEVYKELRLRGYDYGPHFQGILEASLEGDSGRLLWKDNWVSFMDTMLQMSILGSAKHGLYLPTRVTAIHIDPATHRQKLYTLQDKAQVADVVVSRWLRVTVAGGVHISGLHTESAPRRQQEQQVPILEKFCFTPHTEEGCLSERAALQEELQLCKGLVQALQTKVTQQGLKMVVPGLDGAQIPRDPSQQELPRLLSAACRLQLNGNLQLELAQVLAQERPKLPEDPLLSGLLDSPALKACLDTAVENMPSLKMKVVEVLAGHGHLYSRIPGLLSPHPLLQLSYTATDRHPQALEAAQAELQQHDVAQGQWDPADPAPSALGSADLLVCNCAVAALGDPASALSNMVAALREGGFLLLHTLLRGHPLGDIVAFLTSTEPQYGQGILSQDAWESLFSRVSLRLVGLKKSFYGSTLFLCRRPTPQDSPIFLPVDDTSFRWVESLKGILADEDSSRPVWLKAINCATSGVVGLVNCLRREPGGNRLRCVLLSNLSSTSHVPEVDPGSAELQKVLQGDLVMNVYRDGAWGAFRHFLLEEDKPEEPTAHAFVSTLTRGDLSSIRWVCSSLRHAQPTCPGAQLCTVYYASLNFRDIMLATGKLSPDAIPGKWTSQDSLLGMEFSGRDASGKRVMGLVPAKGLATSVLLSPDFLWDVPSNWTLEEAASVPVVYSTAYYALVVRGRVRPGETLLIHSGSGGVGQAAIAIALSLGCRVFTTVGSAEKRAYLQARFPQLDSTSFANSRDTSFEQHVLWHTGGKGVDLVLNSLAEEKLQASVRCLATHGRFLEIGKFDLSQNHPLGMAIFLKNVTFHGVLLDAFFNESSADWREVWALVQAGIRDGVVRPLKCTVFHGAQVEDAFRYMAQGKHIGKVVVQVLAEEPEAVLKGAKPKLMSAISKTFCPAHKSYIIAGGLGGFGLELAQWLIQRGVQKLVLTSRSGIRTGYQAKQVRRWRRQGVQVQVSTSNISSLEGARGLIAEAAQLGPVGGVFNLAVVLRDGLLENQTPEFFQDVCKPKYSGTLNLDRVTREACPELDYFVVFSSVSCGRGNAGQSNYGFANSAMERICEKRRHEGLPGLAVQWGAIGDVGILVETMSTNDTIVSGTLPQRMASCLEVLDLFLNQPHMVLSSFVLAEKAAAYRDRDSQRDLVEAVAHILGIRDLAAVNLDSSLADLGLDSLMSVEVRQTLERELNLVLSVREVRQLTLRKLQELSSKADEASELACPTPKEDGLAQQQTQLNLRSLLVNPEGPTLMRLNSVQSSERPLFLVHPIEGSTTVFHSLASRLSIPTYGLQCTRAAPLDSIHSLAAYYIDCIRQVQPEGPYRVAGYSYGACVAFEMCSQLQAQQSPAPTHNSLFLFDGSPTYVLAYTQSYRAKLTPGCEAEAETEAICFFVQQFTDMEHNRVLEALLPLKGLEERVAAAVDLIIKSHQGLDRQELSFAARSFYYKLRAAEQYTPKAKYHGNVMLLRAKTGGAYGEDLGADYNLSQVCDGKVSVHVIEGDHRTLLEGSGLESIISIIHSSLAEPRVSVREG

Row | Compound | pIC50 A2780 Ovarian Cell, With Palmitate (A2780 ovarian cells [1]) | pIC50 A2780 Ovarian Cell, Without Palmitate (A2780 ovarian cells [2]) | Human FASN pIC50 [3] | Human FASN % inhibition @ 10 μM [3] | pIC50 PC-3M-Luc-C6 prostate cell [4] | pIC50 LNCaP_Vancouver prostate cell [5] | FASN Keto-reductase Domain pIC50 [6] | Human FASN pIC50 ([3]; hFASN enzyme, full length, "~" means standard error of the pIC50 is larger than 0.5)
1 | O=C(C1CC1)N1CC[C@@H](CN2C(=O)C3(CC3)N=C2c2ccc(-c3ccc4[nH]ncc4c3)cn2)C1 | <5 | 6.19 | 6.29 | 96% | 6.11 | 5.39 | 5.96 | 
2 | Cn1ncc2cc(-c3ccc(C4=NC5(CC5)C(=O)N4CC4CN(C(=O)C5(O)CC5)C4)cc3Cl)ccc21 | <5 | 5.66 |  | 82% | 5.66 | <5 | 5.6 | 5.8

Reference: patent US10077261B2, “Imidazolin-5-one derivative useful as FASN inhibitors for the treatment of cancer” (Janssen Pharmaceutica NV, priority 2012, dated 2018)
